Earlier results as cited in patent publication EP1464341B1, “Ubiquinone-containing water-soluble formulation for ophthalmic use” (Visufarma S.p.A, priority 2003, dated 2004).

Conditions: even for a very long time; cited from earlier work

## d-Alpha-tocopheryl polyethylene glycol 1000-succinate [vitamin E TPGS]
  stability (hydrolysis when stored): undergoes no hydrolysis when stored
